System: Non-selective mix
Assay: Suspension tests, non-selective agar
Type: cell-based, E. coli O157:H7, sv. Typhimurium, and Listeria monocytogenes
Conditions: for % bacteria killed: listed as 40 ppm chlorine; for Average log reduction: vs water control

chlorine
Average (bacterial load) (30 seconds at 4° C., Water 1.00 × 10^7): 3.25 × 10^3
% bacteria killed (30 seconds at 4° C.): 99.968%
Average log reduction (30 seconds at 4° C.): 3.49
Average (bacterial load) (30 seconds at 15° C., Water 8.46 × 10^6): 4.00 × 10^0
% bacteria killed (30 seconds at 15° C.): 100%
Average log reduction (30 seconds at 15° C.): 6.33
Average (bacterial load) (30 seconds at 40° C., Water 8.30 × 10^6): 2.00 × 10^0
% bacteria killed (30 seconds at 40° C.): 100%
Average log reduction (30 seconds at 40° C.): 6.62
Average (bacterial load) (90 seconds at 4° C., Water 6.22 × 10^6): 2.50 × 10^2
% bacteria killed (90 seconds at 4° C.): 99.996%
Average log reduction (90 seconds at 4° C.): 4.40
Average (bacterial load) (90 seconds at 15° C., Water 1.21 × 10^7): 8.00 × 10^0
% bacteria killed (90 seconds at 15° C.): 100%
Average log reduction (90 seconds at 15° C.): 6.18
Average (bacterial load) (90 seconds at 40° C., Water 9.76 × 10^6): 1.60 × 10^1
% bacteria killed (90 seconds at 40° C.): 100%
Average log reduction (90 seconds at 40° C.): 5.79

— patent US10993448B2, “Method for sanitizing fresh produce” (Dole Fresh Vegetables, Inc., priority 2014, dated 2021)
